Measurements: patent publication US7160890B2, “Compounds specific to adenosine A3 receptor and uses thereof” (OSI Pharmaceuticals, Inc., priority 1999, dated 2007)

Protein sequences, listed by entry. Tags and fused reporters are not part of them.
UniProt P29275, whole entry: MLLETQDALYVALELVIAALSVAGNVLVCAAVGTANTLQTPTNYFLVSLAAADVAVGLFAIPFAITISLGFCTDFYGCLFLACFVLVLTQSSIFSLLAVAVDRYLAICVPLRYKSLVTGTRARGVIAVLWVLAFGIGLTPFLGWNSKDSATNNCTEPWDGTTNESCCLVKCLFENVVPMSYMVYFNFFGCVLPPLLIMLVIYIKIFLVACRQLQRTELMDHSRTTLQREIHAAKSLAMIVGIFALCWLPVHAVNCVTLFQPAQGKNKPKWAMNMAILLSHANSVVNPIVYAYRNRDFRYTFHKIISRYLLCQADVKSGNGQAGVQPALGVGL

Target: human A2b receptor subtype (Homo sapiens, UniProt P29275)
Assay: Adenosine 2b receptor subtype competition radioligand binding, [3H]DPCPX, HEK293 membranes
Conditions: Table 13, concentration not given

Binding A2b, value given in %: 30%
SMILES: Cc1[nH]c2nc(-c3ccccc3)nc(N[C@H]3CC[C@H](O)CC3)c2c1C
